Assay results: article PMC3736441 (Marine Drugs, 2013)

Sequences of proteins named here, by UniProt entry; tags and fusion partners are left off. Residues count along the entry.
UniProt P22303, 32-614: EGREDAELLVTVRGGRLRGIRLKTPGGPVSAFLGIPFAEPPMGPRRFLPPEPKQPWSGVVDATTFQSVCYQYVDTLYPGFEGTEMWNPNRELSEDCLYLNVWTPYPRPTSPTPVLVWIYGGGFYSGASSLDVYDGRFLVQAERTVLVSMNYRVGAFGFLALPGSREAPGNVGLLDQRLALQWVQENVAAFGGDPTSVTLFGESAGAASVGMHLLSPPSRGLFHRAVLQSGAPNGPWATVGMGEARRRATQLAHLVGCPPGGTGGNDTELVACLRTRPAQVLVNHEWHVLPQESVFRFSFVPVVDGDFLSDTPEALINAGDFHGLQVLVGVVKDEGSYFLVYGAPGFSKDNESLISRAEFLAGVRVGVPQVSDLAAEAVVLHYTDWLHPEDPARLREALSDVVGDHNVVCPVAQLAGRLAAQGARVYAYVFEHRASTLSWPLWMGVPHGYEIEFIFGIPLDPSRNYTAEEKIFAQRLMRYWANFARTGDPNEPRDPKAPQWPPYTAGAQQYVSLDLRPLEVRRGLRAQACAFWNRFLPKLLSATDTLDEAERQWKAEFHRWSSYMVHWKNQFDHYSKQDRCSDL

Legend:
[1] = target: α-acetylcholinesterase (AChE) (Homo sapiens, UniProt P22303); format: biochemical; conditions: read-out: Inhibition of AChE IC50; phosphate buffer pH 7.0, 37 °C, triplicate
Experimental: α-Acetylcholinesterase inhibitory activity was assayed using 50 mM phosphate buffer (pH 7.0). […] 10 μL of sample solution and 10 μL of α-acetylcholinesterase solution (2 units mL^−1, in the phosphate buffer at pH 7.0) were added to 960 μL of phosphate buffer and incubated at 37 °C for 30 min, and then 20 μL of substrate were added to initiate the enzyme reaction. The enzyme reaction was carried out at 37 °C for 30 min. Product was monitored spectrophotometrically by measuring the absorbance (λ = 400 nm). Huperzine A was used as reference standard inhibitor for comparison. Dose-response curves were obtained by performing assays in the presence of increasing concentrations of inhibitors. IC50 value was determined by interpolation of the dose-response curves. For all tests, the inhibition assays were performed in triplicate.

[2] = system: cervix carcinoma cells (Hela); conditions: MTT
Experimental: (§1) IC50 of these compounds were determined by the MTT assay (see Table 2).
(§2) The cytotoxic activities were determined using MCF-7, A549, Hela, KB human tumor cells by the MTT colorimetric method. […] Subsequently 20 μL of MTT solution (5 mg/mL) were added to each well and mixed, the cells were then incubated for an additional 4 h. Culture supernatant were removed, 150 μL of DMSO were added to each well to fully dissolve the MTT—formazan crystals. Cell growth inhibition was determined by measuring the absorbance (Abs) at λ = 570 nm using a microplate reader and calculated according to the following equation: Growth inhibition = (1 − OD of treated cells/OD of control cells) × 100% (1)
(§3) The half maximal inhibitory concentrations (IC50) were obtained from linear regression analysis of the concentration-response curves plotted for each tested compound (Bliss’s software). Results were expressed as the mean value of triplicate data points.

[3] = system: human breast cancer cells (MCF-7); conditions: MCF-7 cells, MTT
Experimental: as §1, §2, §3

[4] = system: human nasopharyngeal carcinoma cells (KB)
Experimental: as §1, §2, §3

[5] = system: lung cancer cells (A549)
Experimental: as §1, §2, §3

In the case of beauvericin [Compound 10], the IC50 [1] is reported as 3090 nM, the “cytotoxic / inhibitory activity against Hela (in words)” value [2] is reported as “strong or moderate cytotoxic activies” and the “cytotoxic / inhibitory activity against MCF-7 (in words)” value [3] is reported as “strong or moderate cytotoxic activies”. The “cytotoxic / inhibitory activity against KB (in words)” value ([4]; MTT) was “strong or moderate cytotoxic activies”, the IC50 ([4]; read-out: Cytotoxicity IC50 KB, MTT) was 1100 nM and the “cytotoxic / inhibitory activity against A549 (in words)” value ([5]; MTT) was “strong or moderate cytotoxic activies”. It also gave an IC50 ([5]; read-out: Cytotoxicity IC50 A549, MTT) of 820 nM.
